The target of the test is 人LAG-3抗原(北京义翘神州生物技术有限公司，货号:16498-H08H) (human) (UniProt P18627). The test can be described thus: ELISA, human LAG-3 antigen coated, goat anti-human IgG-HRP. On the technique in general: In an ELISA, binding on a coated surface is turned into a signal by an enzyme label.

Chains of the proteins cited; added tags and fusions are not shown. Lines headed by an entry give the natural chain unless they say otherwise; changes in a name come on top. Residues count along the entry.
UniProt P18627, 23-450 limits assumed: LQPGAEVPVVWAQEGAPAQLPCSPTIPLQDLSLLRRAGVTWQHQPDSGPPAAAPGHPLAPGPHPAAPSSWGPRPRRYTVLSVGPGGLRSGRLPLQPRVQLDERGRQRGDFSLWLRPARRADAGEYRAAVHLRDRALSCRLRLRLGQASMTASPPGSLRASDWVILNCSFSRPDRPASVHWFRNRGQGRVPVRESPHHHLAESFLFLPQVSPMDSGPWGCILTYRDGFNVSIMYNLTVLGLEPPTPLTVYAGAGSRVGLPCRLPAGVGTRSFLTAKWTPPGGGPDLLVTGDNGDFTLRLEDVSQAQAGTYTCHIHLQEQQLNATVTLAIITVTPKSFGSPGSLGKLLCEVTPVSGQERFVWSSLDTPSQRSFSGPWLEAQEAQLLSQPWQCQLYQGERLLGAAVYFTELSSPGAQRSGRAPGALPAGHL

The EC50 is the concentration giving half of the maximal effect. A high value points to lower potency in that assay. Regarding 瑞拉利单抗(Relatlimab) (antibody), the EC50 was 0.093 µg/mL.

Source of the values: patent publication CN113603779A.
